From BindingDB's records for 12372498

Sequences of proteins named here, by UniProt entry; tags and fusion partners are left off. A change or cut given only in a name is not applied to a line headed by its entry.
UniProt P18031: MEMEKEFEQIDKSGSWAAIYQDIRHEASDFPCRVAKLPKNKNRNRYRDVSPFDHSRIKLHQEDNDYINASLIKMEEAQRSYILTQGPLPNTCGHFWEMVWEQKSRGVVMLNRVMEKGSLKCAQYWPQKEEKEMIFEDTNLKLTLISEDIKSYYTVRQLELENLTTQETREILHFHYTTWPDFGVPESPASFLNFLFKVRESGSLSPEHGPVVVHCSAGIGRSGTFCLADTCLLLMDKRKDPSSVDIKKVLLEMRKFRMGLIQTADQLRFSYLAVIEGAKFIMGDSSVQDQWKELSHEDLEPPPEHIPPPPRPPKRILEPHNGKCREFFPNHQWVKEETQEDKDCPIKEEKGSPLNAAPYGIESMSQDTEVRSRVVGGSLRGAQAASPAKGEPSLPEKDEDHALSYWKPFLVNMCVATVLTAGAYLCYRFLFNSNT

Target: Tyrosine-protein phosphatase non-receptor type 1 (Homo sapiens, UniProt P18031)
Experiment: ChEBML_162441

| SMILES | Ki [µM] |
| --- | --- |
| COc1ccc(C(=O)CBr)cc1 | 128 |
| O=C(CBr)c1ccc([N+](=O)[O-])cc1 | 195 |
